Values quoted from earlier work in US7135488B2, “Pyrrolyl-thiazole derivatives” (Hoffmann-La Roche Inc., priority 2003, dated 2006).

Chains of the proteins cited; added tags and fusions are not shown.
UniProt P47746, whole entry: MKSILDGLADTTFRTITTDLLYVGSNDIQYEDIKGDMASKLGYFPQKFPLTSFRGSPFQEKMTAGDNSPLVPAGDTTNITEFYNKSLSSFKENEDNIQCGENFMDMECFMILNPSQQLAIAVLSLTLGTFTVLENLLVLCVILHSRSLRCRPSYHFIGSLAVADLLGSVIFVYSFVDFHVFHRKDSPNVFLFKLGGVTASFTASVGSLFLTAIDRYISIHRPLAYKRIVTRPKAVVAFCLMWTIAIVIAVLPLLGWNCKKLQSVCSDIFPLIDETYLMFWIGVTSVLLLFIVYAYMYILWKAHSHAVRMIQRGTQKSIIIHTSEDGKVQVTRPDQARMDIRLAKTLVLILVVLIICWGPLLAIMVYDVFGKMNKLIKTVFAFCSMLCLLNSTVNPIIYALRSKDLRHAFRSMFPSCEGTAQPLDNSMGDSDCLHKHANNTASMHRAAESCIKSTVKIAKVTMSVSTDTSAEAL

Target: CB1 receptor (Mus musculus, UniProt P47746)
Settings: wild-type versus CB1 receptor knockout mice; cited from earlier work

Question: For `Cc1c(C(=O)NN2CCCCC2)nn(-c2ccc(Cl)cc2Cl)c1-c1ccc(Cl)cc1` [SR141716A], which food intake is on record?
Answer: The food intake was “reduces food intake in wild-type but not knockout mice”.
